Consider three substances from patent publication US20220098297A1.

Like-named read-outs stand apart in the source and are kept apart here.

Test [1] addresses cynoFcRN-C-His (monkey (cyno)) (UniProt Q8SPV9). As to the kind of experiment: BLI (Octet QK), FcRn-His on Ni-NTA biosensor, antibody as analyte, pH 6.0.
For test [2] the target is unchanged. Description: BLI (Octet QK), FcRn-His on Ni-NTA biosensor, antibody as analyte, pH 7.4. A general note: BLI is a label-free optical method that tracks binding on a fibre tip over time.
The target in test [3] is hFcRN-C-His (human) (UniProt P55899). Description: BLI (Octet QK), FcRn-His on Ni-NTA biosensor, antibody as analyte, pH 6.0; pH 6.0.
In test [4] the target is Recombinant human Fc gamma RIIIA/CD16a protein (human) (UniProt P08637). Description: indirect ELISA, CD16a coated at 1 µg/ml, antibody diluted 4-fold from 1380 nM, anti-human IgG F(ab')2-specific HRP, absorbance 450 nm. (In general: ELISA stands for enzyme-linked immunosorbent assay.)
In test [5] the target is human IL-17A (human) (UniProt Q16552). Description: cell-based or functional assay.
Test [6] addresses human TNF-α (human) (UniProt P01375). Description: cell-based or functional assay.
The target in test [7] is human IL-17A (human) (UniProt Q16552). Description: cell-based or functional assay. The source holds these as a separate data set.
Test [8] deals with human TNF-α (human) (UniProt P01375). As to the kind of experiment: cell-based or functional assay. This is another data set of the same source.
Test [9] has as its target human IL-17A (human) (UniProt Q16552). Description: cell-based or functional assay. This is another data set of the same source.
Test [10] concerns the target human TNF-α (human) (UniProt P01375). Description: cell-based or functional assay. The source holds these as a separate data set.
For test [11], the target named is human IL-17A (human) (UniProt Q16552). Description: cell-based or functional assay. The source holds these as a separate data set.
Test [12] addresses human TNF-α (human) (UniProt P01375). Description: cell-based or functional assay. This is another data set of the same source.
Test [13] has as its target hFcRN-C-His (human) (UniProt P55899). As to the kind of experiment: BLI (Octet QK), FcRn-His on Ni-NTA biosensor, antibody as analyte, pH 6.0.
Test [14] has the same target. Description: BLI (Octet QK), FcRn-His on Ni-NTA biosensor, antibody as analyte, pH 7.4.

Regarding Humira (adalimumab) (antibody), the Kd was determined as 0.599 nM in test [1], 4.24 nM in test [2] and 0.642 nM in test [3].
For the substance “Humira (adalimumab) (antibody; other documents disagree on this pair)”, the EC50 (read off the curve) in test [4] is 40 nM.
For SDA-0070 (bispecific antibody), in [5], the IC50, CXCL-1 secretion of HT-29 cells stimulated with IL-17A + TNF-α (co-neutralization); SDA-0070 CEX stood at 0.0215 nM and the IC50, CXCL-1 secretion of HT-29 cells stimulated with IL-17A; SDA-0070 CEX is 0.0227 nM. Moreover, in test [6], the IC50, CXCL-1 secretion of HT-29 cells stimulated with IL-17A + TNF-α (co-neutralization); SDA-0070 CEX amounted to 0.0215 nM and the IC50, CXCL-1 secretion of HT-29 cells stimulated with TNF-α; SDA-0070 CEX turned out to be 0.0251 nM. For the same substance, in [7], the IC50, CXCL-1 secretion of HT-29 cells stimulated with IL-17A + TNF-α (co-neutralization); SDA-0070 CEX is 0.0196 nM; the IC50, CXCL-1 secretion of HT-29 cells stimulated with IL-17A + TNF-α (co-neutralization); SDA-0070 GFC stood at 0.0182 nM; the IC50, IL-6 production induced by TNF-α+IL-17A in patient-derived RA-FLS (RA03) was 0.000369 nM; the IC50, SEAP reporter of HEK-Blue IL-17 cells; SDA-0070 CEX was found to be 0.058 nM. In [7], this substance showed an IC50, hIL-6 secretion of commercial RA-FLS cells stimulated with IL-17A and TNF-α (co-neutralization) of 0.0137 nM; an IC50, hIL-6 secretion of commercial RA-FLS cells stimulated with hIL-17A of 0.312 nM. Besides, in test [8], the IC50, CXCL-1 secretion of HT-29 cells stimulated with IL-17A + TNF-α (co-neutralization); SDA-0070 CEX stood at 0.0196 nM; the IC50, CXCL-1 secretion of HT-29 cells stimulated with IL-17A + TNF-α (co-neutralization); SDA-0070 GFC amounted to 0.0182 nM; the IC50, IL-6 production induced by TNF-α+IL-17A in patient-derived RA-FLS (RA03) is 0.000369 nM; the IC50, SEAP reporter of HEK-Blue TNF-α cells; SDA-0070 CEX stood at 0.0399 nM. In addition, in [8], the IC50, hIL-6 secretion of commercial RA-FLS cells stimulated with IL-17A and TNF-α (co-neutralization) amounted to 0.0137 nM; the IC50, hIL-6 secretion of commercial RA-FLS cells stimulated with hTNF-α was determined as 0.0307 nM. In test [9], the IC50, CXCL-1 secretion of HT-29 cells stimulated with IL-17A + TNF-α (co-neutralization); SDA-0070 CEX amounted to 0.0309 nM; the IC50, CXCL-1 secretion of HT-29 cells stimulated with IL-17A + TNF-α (co-neutralization); SDA-0070 RD1601 was 0.0277 nM; the IC50, CXCL-1 secretion of HT-29 cells stimulated with IL-17A; SDA-0070 CEX is 0.0605 nM; the IC50, CXCL-1 secretion of HT-29 cells stimulated with IL-17A; SDA-0070 RD1601 is 0.0552 nM. Also, in test [10], the IC50, CXCL-1 secretion of HT-29 cells stimulated with IL-17A + TNF-α (co-neutralization); SDA-0070 CEX was 0.0309 nM; the IC50, CXCL-1 secretion of HT-29 cells stimulated with IL-17A + TNF-α (co-neutralization); SDA-0070 RD1601 came to 0.0277 nM; the IC50, CXCL-1 secretion of HT-29 cells stimulated with TNF-α; SDA-0070 CEX turned out to be 0.0336 nM; the IC50, CXCL-1 secretion of HT-29 cells stimulated with TNF-α; SDA-0070 RD1601 was determined as 0.0302 nM. In addition, in test [11], the IC50, SEAP reporter of HEK-Blue IL-17 cells; SDA-0070 CEX was 0.00446 nM and the IC50, SEAP reporter of HEK-Blue IL-17 cells; SDA-0070 RD1601 turned out to be 0.00454 nM. In test [12], this substance registered an IC50, SEAP reporter of HEK-Blue TNF-α cells; SDA-0070 CEX of 0.0198 nM and an IC50, SEAP reporter of HEK-Blue TNF-α cells; SDA-0070 RD1601 of 0.0233 nM. Moreover, in test [1], the Kd is 0.461 nM, the koff is 0.00075 s⁻¹ and the kon stood at 1.63e+06 M⁻¹ s⁻¹. In test [13], this substance yielded a Kd of 0.506 nM, a koff of 0.000856 s⁻¹ and a kon of 1.69e+06 M⁻¹ s⁻¹. In [2], this substance returned a Kd of 4.46 nM, a koff of 0.0042 s⁻¹ and a kon of 943000 M⁻¹ s⁻¹. In test [14], this substance displayed a Kd of 9.08 nM, a koff of 0.00583 s⁻¹ and a kon of 641000 M⁻¹ s⁻¹.

For orientation: Kd means the constant that tells how readily two partners part at equilibrium. Broadly, the EC50 (read off the curve) is the midpoint of the concentration-response curve. Broadly, the koff is the first-order rate constant of dissociation. One may read the kon as the second-order rate constant of association.
